Values of other authors as cited in US12491184B2 (Veradermics, Incorporated, priority 2022, dated 2025).

Details: during the first 12 h; cited from earlier work

## Nc1cc(N2CCCCC2)nc(N)[n+]1[O-] [minoxidil]
  predominant metabolite in the urine: glucuronide conjugate
